One data set deals with mouse. The conditions noted are these: i.p., literature value; cited from earlier work.
Data set [1] relates to platelet aggregation induced with ADP (platelet rich plasma). As to the kind of experiment: In vitro anti-platelet aggregant activity (Born's method, ADP-induced aggregation). Type of data set: cell-based, rat. The note with it: for inhibition at 1 µg/mL / inhibition at 5 µg/mL / inhibition at 10 µg/mL: Rattus norvegicus, Platelet, 0.05 h, 3 min incubation; for inhibition at 1 µg/mL: dose 1 γ/ml; for inhibition at 5 µg/mL: dose 5 γ/ml; for inhibition at 10 µg/mL: dose 10 γ/ml.

Data set [2] concerns guinea pig tracheal chains (histamine as bronchoconstrictor). As to the kind of experiment: Broncholytic activity in vitro on tracheal chains (Akasu's method), antagonism of histamine. Type of data set: cell-based. The note with it: summary in words.
Data set [3] in a line: Antinflammatory and analgesic effects (no method described). The note with it: summary in words; no data shown.
Another data set can be described thus: in vivo. The note with it: mouse.
The next data set in a line: Solubility. Type of data set: physicochemical. The note with it: in dichloromethane, N,N'-dimethylformamide.
[4] abbreviates: read-out: Inhibition % of platelet aggregation, ADP 7,08 μmol/l.
Where [5] appears, read: ADP 7,08 μmol/l, read-out: Inhibition % of platelet aggregation.

Entries after “also recorded” stand apart in the source; their conditions may differ. Like-named read-outs stand apart in the source and are kept apart here.

Turning to `CC(=O)Oc1ccccc1C(=O)O` [Aspirin, reference compound], the “DL50 (LD50)” value in the data set with mouse was 495 mg/kg. The inhibition at 1 µg/mL in data set [1] (read-out: Inhibition % of platelet aggregation, ADP 2 μmol/l) amounted to 29%. Further, the inhibition at 1 µg/mL in data set [1] (read-out: Inhibition % of platelet aggregation, ADP 5 μmol/l) was determined as 19%. Moreover, in data set [1] (setting [4]), the inhibition at 1 µg/mL was found to be 15%, the inhibition at 5 µg/mL is 60% and the inhibition at 10 µg/mL turned out to be 100%.

With `Cc1ccc(C(=O)c2ccc(CC(=O)NCCn3cnc4c3c(=O)n(C)c(=O)n4C)n2C)cc1` [compound (1), 7-(1-methyl-5-p-methylbenzoylpyrrole-2-acetamidoethyl)theophylline], the broncholytic activity result in data set [2] is “good broncholytic action; also recorded: good broncholytic activity comparable to that of theophylline”. Also, in data set [3], the analgesic effect entry was “low antinflammatory and analgesic effects”; the antinflammatory effect entry was “low antinflammatory and analgesic effects”. In “in vivo” (ip), this molecule registered an LD50 of 970 mg/kg. The LD50 in “in vivo” (po) was found to be 1400 mg/kg. The Solubility result in “Solubility” is “soluble in dichloromethane, N,N'-dimethylformamide”. In data set [1] (ADP 2 μmol/l, read-out: Inhibition % of platelet aggregation), the inhibition at 1 µg/mL was 30%. In addition, the inhibition at 1 µg/mL in data set [1] (ADP 5 μmol/l, read-out: Inhibition % of platelet aggregation) is 21%. Besides, in data set [1] (setting [5]), the inhibition at 1 µg/mL stood at 12%, the inhibition at 5 µg/mL was 59% and the inhibition at 10 µg/mL came to 90%. Moreover, the anti-platelet aggregant activity entry in data set [1] (summary in words) is “pronounced therapeutically useful anti-platelet aggregant activity”.

Broadly, the LD50 is the dose expected to kill half of the subjects tested. Low values mean greater toxicity, high ones lower toxicity.
